System: HEK293
Assay: Positive allosteric modulation of rat mGlu2/mGlu4 receptor expressed in HEK293 cells coexpressing GIRK assessed as thallium influx by CODA-RET assay relative to glutamate
Type: cell-based
Settings: filed as positive allosteric modulator
In short: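 HEK293 cells co-expressing mGlu2, mGlu4 and GIRK channels; thallium flux read-out. Test compound concentration-response in the presence of a fixed EC20 glutamate concentration. Gives EC50, Hill slope and maximal response as % of a saturating glutamate concentration. N=3 experiments, each in triplicate.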

COc1cc(NC(=O)c2ccccn2)ccc1NC(=O)c1ccc(NC(=O)COCC(=O)NCCCNC(=O)COc2ccc(-c3cccc(COc4cc5c(c(C)c4C)C(=O)C(C4CCCC4)C5)c3)cc2C(=O)O)cc1Cl (stereo unspecified)
Emax: 90%

From ChEMBL document CHEMBL4725236, “Synthesis and pharmacological evaluation of bivalent tethered ligands to target the mGlu heterodimeric receptor results in a compound with mGlu homodimer selectivity” (Bioorg Med Chem Lett, 2020)
